Test system: mouse hybridoma cell line
Details: reciprocal shaking platform 120 rpm, 3 days; presence or absence of transferrin; FIG. 2B
Protocol: A mouse hybridoma cell line, previously subcultured in serum free medium containing human transferrin, was centrifuged and resuspended at 1.5×10^5 cells/ml in either transferrin-free or transferrin-containing serum-free medium. […] The flasks were gassed in 5% CO2—95% air atmosphere, sealed and incubated either static or on an orbital reciprocal shaking platform (120 rpm) at 36.5° C. for 3 days. Samples were then removed and cell concentration was determined by haemocytometry.

ferric ammonium citrate was tested, and the “toxic concentration in agitated culture” value was over 1 mg/L.

Source: patent publication US6593140B1, “Animal cell culture” (Lonza Group, AG, priority 1992, dated 2003)
